Only a part is listed here, and it is no random draw. Calls of active or inactive are those of the source.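 Rule for the calls: active = mean inhibition of at least 30% with at least half of replicates also reaching 30%; inconclusive = no clear call, values can overlap the other calls; inactive = the rest.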
What follows are compounds tested against Golgi-associated PDZ and coiled-coil motif-containing protein (Homo sapiens) (UniProt Q9HD26) (assay: untagged CAL PDZ binding inhibitors, primary screen, biochemical, fluorescence polarization, HTS (AID 602252;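 note: 0% = DMSO neutral control and 100% = excess unlabeled competitor peptide PRC23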)). Conditions: purified CAL PDZ, TMR-peptide fluorescence polarization, 1 h; at 24.9 µM; active compounds read high.

| SMILES | inhibition |
| --- | --- |
| CCC(=O)N(c1ccccc1)C1(COC)CCN(CCn2nnn(CC)c2=O)CC1 | inactive: 2.29% |
| CCC(=O)N(c1ccccc1)C1(COC)CCN(CCc2cccs2)CC1 | inactive: 0.136% |
